Laboratory results: patent US20230027361A1, “METTL3 MODULATORS” (priority 2019, published 2023)

Sequences of proteins named here, by UniProt entry; tags and fusion partners are left off.
UniProt Q9UBP6, whole entry: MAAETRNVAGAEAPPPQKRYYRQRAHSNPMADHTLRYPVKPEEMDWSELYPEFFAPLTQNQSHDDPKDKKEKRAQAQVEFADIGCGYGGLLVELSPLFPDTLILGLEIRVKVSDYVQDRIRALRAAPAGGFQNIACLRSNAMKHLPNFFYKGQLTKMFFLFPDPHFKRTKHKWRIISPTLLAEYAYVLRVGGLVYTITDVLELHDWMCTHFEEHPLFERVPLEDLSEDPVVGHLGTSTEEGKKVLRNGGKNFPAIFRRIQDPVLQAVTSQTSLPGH
UniProt O14744, whole entry: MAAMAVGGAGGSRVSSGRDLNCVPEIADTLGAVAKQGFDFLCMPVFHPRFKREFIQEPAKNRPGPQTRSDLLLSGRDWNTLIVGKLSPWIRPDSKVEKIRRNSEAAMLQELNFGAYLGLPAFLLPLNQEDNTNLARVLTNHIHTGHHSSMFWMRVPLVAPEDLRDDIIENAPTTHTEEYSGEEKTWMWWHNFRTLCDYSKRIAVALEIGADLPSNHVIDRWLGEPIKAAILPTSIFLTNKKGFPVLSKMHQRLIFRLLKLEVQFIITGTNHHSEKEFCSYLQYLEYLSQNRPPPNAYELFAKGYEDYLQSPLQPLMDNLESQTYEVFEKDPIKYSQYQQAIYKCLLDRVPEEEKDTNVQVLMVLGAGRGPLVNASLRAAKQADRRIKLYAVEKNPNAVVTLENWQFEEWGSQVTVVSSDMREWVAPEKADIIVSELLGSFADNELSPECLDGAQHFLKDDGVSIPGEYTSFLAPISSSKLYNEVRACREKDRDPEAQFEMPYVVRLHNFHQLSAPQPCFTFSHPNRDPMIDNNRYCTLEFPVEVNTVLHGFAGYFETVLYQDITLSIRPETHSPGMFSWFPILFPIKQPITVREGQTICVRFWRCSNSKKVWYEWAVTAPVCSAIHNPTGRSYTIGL
UniProt Q86U44, whole entry: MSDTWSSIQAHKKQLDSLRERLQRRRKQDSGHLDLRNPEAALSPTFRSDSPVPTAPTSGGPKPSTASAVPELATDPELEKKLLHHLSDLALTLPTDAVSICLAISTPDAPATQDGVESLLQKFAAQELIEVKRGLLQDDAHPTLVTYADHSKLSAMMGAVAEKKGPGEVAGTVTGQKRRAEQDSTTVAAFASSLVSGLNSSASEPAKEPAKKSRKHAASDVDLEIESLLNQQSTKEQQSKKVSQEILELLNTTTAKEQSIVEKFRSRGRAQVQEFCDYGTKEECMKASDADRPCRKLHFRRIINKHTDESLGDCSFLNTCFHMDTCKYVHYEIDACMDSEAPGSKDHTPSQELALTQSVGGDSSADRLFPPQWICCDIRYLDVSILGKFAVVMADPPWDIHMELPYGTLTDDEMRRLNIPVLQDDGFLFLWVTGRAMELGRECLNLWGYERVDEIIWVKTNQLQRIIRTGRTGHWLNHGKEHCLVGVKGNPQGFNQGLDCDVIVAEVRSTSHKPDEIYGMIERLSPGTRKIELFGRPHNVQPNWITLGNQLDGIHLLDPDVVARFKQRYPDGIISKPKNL
UniProt Q9BQA1, whole entry partner: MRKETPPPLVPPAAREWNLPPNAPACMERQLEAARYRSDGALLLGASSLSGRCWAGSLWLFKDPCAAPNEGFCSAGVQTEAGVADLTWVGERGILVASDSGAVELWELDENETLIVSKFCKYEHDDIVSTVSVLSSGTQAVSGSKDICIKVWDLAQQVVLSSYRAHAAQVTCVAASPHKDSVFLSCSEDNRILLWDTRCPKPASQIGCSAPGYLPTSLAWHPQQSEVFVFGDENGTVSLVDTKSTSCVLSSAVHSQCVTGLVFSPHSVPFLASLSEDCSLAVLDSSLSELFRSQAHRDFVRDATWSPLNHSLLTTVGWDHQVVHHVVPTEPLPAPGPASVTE
UniProt P57081, whole entry partner: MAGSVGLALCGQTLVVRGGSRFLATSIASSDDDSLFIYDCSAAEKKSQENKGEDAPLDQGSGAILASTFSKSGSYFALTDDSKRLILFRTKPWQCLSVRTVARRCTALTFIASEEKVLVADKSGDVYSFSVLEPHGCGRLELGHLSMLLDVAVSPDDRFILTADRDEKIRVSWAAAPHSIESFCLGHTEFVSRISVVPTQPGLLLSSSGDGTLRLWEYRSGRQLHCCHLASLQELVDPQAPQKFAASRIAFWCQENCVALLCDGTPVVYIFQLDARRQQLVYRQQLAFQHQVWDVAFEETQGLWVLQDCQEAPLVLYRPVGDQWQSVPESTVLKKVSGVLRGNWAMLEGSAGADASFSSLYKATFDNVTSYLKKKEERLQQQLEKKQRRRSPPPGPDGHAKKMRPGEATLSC
UniProt Q9HCE5, whole entry partner: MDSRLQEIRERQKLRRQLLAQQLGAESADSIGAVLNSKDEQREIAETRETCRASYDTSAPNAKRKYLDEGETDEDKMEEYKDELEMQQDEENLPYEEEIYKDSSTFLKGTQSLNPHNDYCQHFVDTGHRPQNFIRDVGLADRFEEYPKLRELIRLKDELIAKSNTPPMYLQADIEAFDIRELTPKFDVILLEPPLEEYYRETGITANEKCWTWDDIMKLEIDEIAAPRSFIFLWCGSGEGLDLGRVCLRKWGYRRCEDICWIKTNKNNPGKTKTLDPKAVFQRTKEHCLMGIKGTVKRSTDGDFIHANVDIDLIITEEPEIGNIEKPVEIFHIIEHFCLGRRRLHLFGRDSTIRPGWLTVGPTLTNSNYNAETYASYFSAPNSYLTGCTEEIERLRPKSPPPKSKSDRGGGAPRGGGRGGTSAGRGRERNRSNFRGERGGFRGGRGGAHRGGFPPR

What was measured:
METTL1/WDR4 = METTL1/WDR4 (Homo sapiens, UniProt Q9UBP6); assay: METTL1 Assay (METTL1 biochemical assay); conditions: read-out: METTL1 IC50
Protocol: Assays were performed in a 25 μl-volume in 384-well V-bottom polypropylene microplates (Greiner Bio-One, cat. No. 781280) at ambient temperature. Optimized 1× assay buffer was 20 mM HEPES pH 7.5, 50 mM KCl, 250 μM MgCl2, 1 mM DTT, 0.01% Tween, 0.01% BSG, 0.004 U/μl RNAseOUT (cat. No. 10777019, ThermoFisher Scientific, Waltham, Mass.). For compound screening METTL1/WDR4 (final concentration, f.c.=6.25 nM) was added using a Multidrop Combi (ThermoFisher Scientific, Waltham, Mass.) and preincubated for 5 min. Reactions were started by adding 3′ biotinylated RNA ([…]-biotin) (f.c.=25 nM) and 3H-SAM (f.c.=60 nM) substrates. Reactions proceeded for 20 minutes and were quenched with excess non-radioactive SAM (f.c.=15 μM). The reactions were then transferred to streptavidin-coated flashplates and incubated for 2 hours at 25° C. Following two washing cycles with 0.1% Tween-20, the plates were sealed and read on a TopCount (PerkinElmer, Waltham, Mass.) plate-based scintillation counter. For determination of kinetic parameters, reaction times were optimized so that measurements were taken during the initial velocity phase of the reaction.

PRMT5-MEP50 = PRMT5-MEP50 (Homo sapiens, UniProt O14744); assay: PRMT5 Assay (PRMT5 biochemical assay); conditions: read-out: PRMT5 IC50
Protocol: Assays were performed in a 25 μl-volume in 384-well V-bottom polypropylene microplates (Greiner Bio-One, cat. No. 781280) at ambient temperature. Optimized 1× assay buffer was 20 mM Tris-HCl pH 8.0, 1 mM DTT, […]. For compound screening PRMT5-MEP50 (final concentration, f.c.=2.5 nM) was added using a Multidrop Combi (ThermoFisher Scientific, Waltham, Mass.) and preincubated for 5 min. Reactions were started by adding 3′ biotinylated histone H4 peptide acetylated on serine 1 (Ac-[…]-Biotin) (f.c.=100 nM) and 3H-SAM (f.c.=250 nM) substrates. Reactions proceeded for 60 minutes and were quenched with excess non-radioactive SAM (f.c.=15 μM). The reactions were then transferred to streptavidin-coated flashplates and incubated for 2 hours at 25° C. Following two washing cycles with 0.1% Tween-20, the plates were sealed and read on a TopCount (PerkinElmer, Waltham, Mass.) plate-based scintillation counter. For determination of kinetic parameters, reaction times were optimized so that measurements were taken during the initial velocity phase of the reaction.

METTL3/METTL14 = METTL3/METTL14 (Homo sapiens, UniProt Q86U44); assay: METTL3-14 Standard Enzyme Assay (METTL3 biochemical assay); conditions: read-out: METTL3 IC50
Protocol: Assays were performed in a 25 μl-volume in 384-well V-bottom polypropylene microplates (Greiner Bio-One, cat. No. 781280) at ambient temperature. Optimized 1× assay buffer was 20 mM HEPES pH 7.5, 50 mM KCl, 250 μM MgCl2, 1 mM DTT, 0.01% Tween, 0.01% BSG, 0.004 U/μl RNAseOUT (cat. No. 10777019, ThermoFisher Scientific, Waltham, Mass.). For compound screening METTL3/METTL14 (final concentration, f.c.=2.5 nM) was added using a Multidrop Combi (ThermoFisher Scientific, Waltham, Mass.) and preincubated for 5 min. Reactions were started by adding 3′ biotinylated RNA (UCUGGACUAAA-biotin) (f.c.=100 nM) and 3H-SAM (f.c.=100 nM) substrates. Reactions proceeded for 30 minutes and were quenched with excess non-radioactive SAM (f.c.=15 μM). The reactions were then transferred to streptavidin-coated flashplates and incubated for 2 hours at 25° C. Following two washing cycles with 0.1% Tween-20, the plates were sealed and read on a TopCount (PerkinElmer, Waltham, Mass.) plate-based scintillation counter. For determination of kinetic parameters, reaction times were optimized so that measurements were taken during the initial velocity phase of the reaction.

[1] = test system: m6A in cellular mRNA of MOLM-13 cells; assay: m6A-mRNA LC-MS/MS Assay (m6A cellular assay); type: cell-based; conditions: read-out: m^6A IC50
MOLM-13 cells [2] = assay: MOLM-13 48 Hour Cell Proliferation Assay; conditions: read-out: MOLM-13 48 Hour cell proliferation IC50
Protocol: MOLM-13 (DSMZ) cells were seeded at 1000 cells per well in a volume of 44 μL in a Falcon 384-well tissue culture treated clear bottom microplate in RPMI 1640 media containing 10% fetal bovine serum using a Multidrop Combi (ThermoFisher Scientific). Cells were incubated overnight at 37° C. in a humidified tissue culture incubator. The Mosquito® HTS Liquid Handler was used to make a compound/media intermediate plate by aliquoting 1 μL of compound from the initial compound dilution plate (concentrations ranging from 10.0 mM to 38.0 nM in 100% DMSO) into a V bottom 384-well screen matrix plate containing 49 μL of media containing the appropriate serum (50-fold dilution, 2% DMSO). […] The plate was read on an EnVision plate reader (Perkin Elmer) using the Ultra Sensitive Luminescence protocol. Data analysis was performed by normalizing the raw luminescence units to an average of the positive control values for staurosporine (100% cell death) and the negative control values for DMSO (0% cell death). An IC50 was calculated using a 4-parameter logistic nonlinear regression model in GraphPad Prism.

MOLM-13 cells [3] = assay: MOLM-13 96 Hour Cell Proliferation Assay; conditions: read-out: MOLM-13 96 Hour cell proliferation IC50
Protocol: MOLM-13 (DSMZ) cells were seeded at 600 cells per well in a volume of 44 μL in a Greiner Bio-One CELLSTAR™ 384 Well Polystyrene Cell Culture clear bottom microplate in RPMI 1640 media containing 10% fetal bovine serum using a Multidrop Combi (ThermoFisher Scientific). Cells were incubated overnight at 37° C. in a humidified tissue culture incubator. To prevent evaporation or to reduce edge effect, add 50 μL or more H2O to an empty plate, cover, and place on top of the cell plates. […] The plate was protected from light using TopSeal-A (Black) film over the entire plate, added White Bottom seal film on the bottom of the entire plate for a better reading on the Envision, and placed on an IKA plate shaker for at 300 rpm for 10 minutes at room temperature. The plate was read on an EnVision plate reader (Perkin Elmer) using the Ultra Sensitive Luminescence protocol. Data analysis was performed by normalizing the raw luminescence units to an average of the positive control values for staurosporine (100% cell death) and the negative control values for DMSO (0% cell death). An IC50 was calculated using a 4-parameter logistic nonlinear regression model in GraphPad Prism.

| Compound | IC50 (METTL1/WDR4) | IC50 (PRMT5-MEP50) | IC50 (METTL3/METTL14) | IC50 [1] | IC50 (MOLM-13 cells [2]) | IC50 (MOLM-13 cells [3]) |
| --- | --- | --- | --- | --- | --- | --- |
| Nc1ncnc2c1ccn2[C@@H]1C[C@H](CCc2ccccc2)[C@@H](O)[C@H]1O | > 1 µM | > 1 µM |  |  |  |  |
| CNc1ccc2ccc(CC[C@H]3C[C@@H](n4cc(C)c5c(N)ncnc54)[C@H](O)[C@@H]3O)cc2n1 | > 1 µM | < 0.01 µM | < 0.01 µM | 1 to 10 µM | 1 to 10 µM | < 1 µM |
| CNc1ccc2ccc(OC[C@H]3O[C@@H](n4cc(C5CCCCC5)c5c(N)ncnc54)[C@H](O)[C@@H]3O)cc2n1 | > 1 µM | < 0.01 µM | < 0.01 µM | 1 to 10 µM |  |  |
